# Measured affinities in a library of Ab-14 heavy chain variants

Binding partner: SARS-CoV-2 spike HR2 peptide, sequence PDVDLGDISGINAS.

Ab-14 is the parent antibody, in scFv form: VH, then a 15-residue (Gly4Ser)3 linker, then VL. The light chain is unchanged in all variants.
VH: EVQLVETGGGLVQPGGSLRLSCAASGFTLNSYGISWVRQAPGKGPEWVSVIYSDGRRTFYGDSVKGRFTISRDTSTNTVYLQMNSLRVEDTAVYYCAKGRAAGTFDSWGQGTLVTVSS
VL: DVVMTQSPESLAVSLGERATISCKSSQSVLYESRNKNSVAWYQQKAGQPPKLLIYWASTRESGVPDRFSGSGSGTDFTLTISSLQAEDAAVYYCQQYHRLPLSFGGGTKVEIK

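Phage display of a naive human antibody library on the peptide gave the parent. Library AAYL49 holds single substitutions and randomly drawn double and triple substitutions in the CDRs. AlphaSeq pools MATa yeast showing the antibodies with MATalpha yeast showing the peptide. After mating in shaken culture at 30 °C for 16 h, diploids were selected and their barcode pairs sequenced. The ratio of observed to expected reads was calibrated, replicate by replicate, on BCL2-family standards whose Kd was known from biolayer interferometry. Mating was done three times.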

The parent's heavy chain CDRs are GFTLNSYGIS, VIYSDGRRTFYGDSVK, GRAAGTFDS; each variant's own CDRs replace them letter for letter.
Each Kd is an estimate from the mating assay, the geometric mean of the replicates in which the pair was seen; lower is stronger.
"not detected" means that the variant was in the library but no mating with the target was seen in any replicate; the authors take this as a sign of poor binding, and no number exists.
In this assay the parent's reference entry averaged 4.4 nM; its copy inside this library read 13 µM (one replicate of three).
Empty control strains, which show no peptide, gave a signal in 15% of pairings with library AAYL49; the median was 11 µM and 95% of these signals were weaker than 680 nM. No background was subtracted. The control count says in how many pairings with the empty strains this scFv gave a signal.

| apparent Kd | detected | control signals | CDR-H1 | CDR-H2 | CDR-H3 |
|---|---|---|---|---|---|
| 2.5 µM | 2 of 3 | 4 of 9 | AFTLNSYGIS | VIYSDGRRTFYGDSVK | GRAAGTHDN |
| not detected | 0 of 3 | 0 of 9 | GFTLNSYGIS | VIYSDLRRTFYGDHVK | GCAAGTFDS |
| 4.6 nM | 3 of 3 | 0 of 9 | GFTLNSYGIS | VIYSDGRRTVYGDSVK | GRASGTHDS |
| 3.1 µM | 3 of 3 | 5 of 9 | GFTLNSYGIS | VIYSDGRRTFYGDSVV | GTAAGTNDS |
| 680 nM | 3 of 3 | 0 of 9 | GFTLNSIGIS | VIYSDGRRTFYGDSVA | GEAAGTFDS |
| 2.0 µM | 1 of 3 | 0 of 9 | GFTLNSYGIS | VIYVDGRGTFYEDSVK | GRAAGTFDS |
| 4.0 µM | 2 of 3 | 2 of 9 | GFYLNSYGIS | VIYSDGRRTFYGDSVK | RRAKGTFDS |
| not detected | 0 of 3 | 4 of 9 | GFTLNSYGIS | VIYSDNFRTFYGDSVK | GRAAGWFDS |
| not detected | 0 of 3 | 0 of 9 | WFTLNSYGIS | VIYSDVRRTFYGISVK | GRAAGTFDS |
| 220 µM | 2 of 3 | 0 of 9 | GFTLNSRGIS | VIYSDGRKRFYGDSVK | GRAAGTFDS |
| 3.1 nM | 3 of 3 | 0 of 9 | GETLNSYGIS | VIYSDGRRTFYGDQVK | GRNAGTFDS |
| not detected | 0 of 3 | 0 of 9 | GKTLNSYGIS | VIYSDGRRTFNGDSVK | GRAAPTFDS |
| 21 µM | 1 of 3 | 2 of 9 | GPTLNSYGIS | VIYSDGRRTFHGDSVK | GRAGGTFDS |
| 24 µM | 2 of 3 | 5 of 9 | GFTLNSYVIS | VIYSDGRRTFYHDWVK | GRAAGTFDS |
| not detected | 0 of 3 | 0 of 9 | GFTLNSYGIS | VIYGDHRRTFYGDSVK | GRAAGQFDS |
| 73 nM | 3 of 3 | 2 of 9 | GFCLNSYGIS | VIYSDGLRTFYGDSVK | GRAAGYFDS |
| 170 nM | 3 of 3 | 1 of 9 | GRTLNSYGIS | VIYSDGRRTFYGDSVK | GRAAGTYDS |
| 22 µM | 3 of 3 | 3 of 9 | GFTLNSYGIS | VIYSDGRRTFYDDSVK | GRAAGFFDG |
| not detected | 0 of 3 | 1 of 9 | GFTLNSYGIN | VIYSNGRRTFYLDSVK | GRAAGTFDS |
| not detected | 0 of 3 | 0 of 9 | GFTLNSYGIS | VIYSDGRRPFYGDSVK | CRRAGTFDS |
| not detected | 0 of 3 | 0 of 9 | GFTLFSYGIS | VIYSDGRRKFYGDSVK | GRAAGTFTS |
| 8.6 µM | 2 of 3 | 2 of 9 | GFTLNSYGIS | QIYSDGRRTFMGDSVK | GRAAGTFDS |
| 1.7 µM | 3 of 3 | 3 of 9 | GFTLNVYGIS | VIYSDGERTFYGDSVK | GRAHGTFDS |
| not detected | 0 of 3 | 2 of 9 | GFTLNSYGIS | VIYSDGRRTFYGDSTK | GRAAGTFKS |
| 360 nM | 3 of 3 | 1 of 9 | GFTLNSYGIS | VIYSDGERTFYGDCVK | GRANGTFDS |
| not detected | 0 of 3 | 0 of 9 | GFTLNSYGIS | KIYSDPRRTFNGDSVK | GRAAGTFDS |
| 1.8 µM | 1 of 3 | 2 of 9 | GFTLNSYGPS | VIYSDGRRTFYGDSVK | NRAAGTFTS |
| 64 µM | 1 of 3 | 0 of 9 | GFCLNSYGKS | VIYSDGRRTFYGDSQK | GRAAGTFDS |
| not detected | 0 of 3 | 0 of 9 | GFTLNSYGIS | VINSDGRRTAYGDSVK | GRAAGTFDS |
| not detected | 0 of 3 | 0 of 9 | GFTLNSYGIS | VIYSLGRRTFYGDSFK | GRAAGPFDS |
| not detected | 0 of 3 | 0 of 9 | GFTLNSYGGG | VIYSDGPRTFYGDSVK | GRAAGTFDS |
| not detected | 0 of 3 | 0 of 9 | GFTLNSYGIS | VIYSMGRRPFYGDSVK | GRAAGTFDS |
| 64 µM | 2 of 3 | 5 of 9 | GFTLLSYGIS | VIYSDGVDTFYGDSVK | GRAAGTFDS |
| not detected | 0 of 3 | 0 of 9 | GFTLNSYGIS | VIYLDGRRTFYHDSVK | GRAAGTPDS |
| not detected | 0 of 3 | 1 of 9 | GFTLNSYGIS | VPYSDCRRTFPGDSVK | GRAAGTFDS |
| not detected | 0 of 3 | 1 of 9 | GFTPNSQGIS | VRYSDGRRTFYGDSVK | GRAAGTFDS |
| not detected | 0 of 3 | 0 of 9 | GNTLNSYGIS | VIYSGGRRTFYGDSVK | GRAAGTFVS |
| 400 nM | 2 of 3 | 1 of 9 | GFTLNSYGIS | VICSVKRRTFYGDSVK | GRAAGTFDS |
| not detected | 0 of 3 | 0 of 9 | GFTLNSYGIS | VIYSDGRRTFYGDSVK | GRAQGTADS |
| not detected | 0 of 3 | 0 of 9 | WFWLNSYGIS | VIYSDGNRTFYGDSVK | GRAAGTFDS |
| 15 nM | 3 of 3 | 0 of 9 | GFTLNSYGIS | VIYSDGRRTFYGDSVK | GRVAGMFDS |
| 13 nM | 3 of 3 | 0 of 9 | GFTLNSYGIS | VIYWDGRRTFYHDSVK | GAAAGTFDS |
| 100 µM | 1 of 3 | 3 of 9 | GFTLNSYGIS | VIKSDGRRTFYGDSVK | GRAAGRFLS |
| 240 nM | 3 of 3 | 4 of 9 | GFTLNSYGIS | VIYSDGRRTFYGDLVK | GRAAGTFDL |
| not detected | 0 of 3 | 1 of 9 | GFTLNSYGIH | VIYSDGRRTFYGDSVK | GRAAGTSDS |
| not detected | 0 of 3 | 4 of 9 | GFTLNSYGIS | VIWSDGRRTFYGMSVK | GHAAGTFDS |
| 9.4 µM | 1 of 3 | 3 of 9 | GFTLNSYGIS | VIYSDHWRTFYGDSVK | SRAAGTFDS |
| not detected | 0 of 3 | 0 of 9 | GFTLNSYGIS | VRYRDGRRTFYGDSVK | GRAAGTFTS |
| 1.9 µM | 2 of 3 | 0 of 9 | GFTLNSYGIS | VIYSDGWRTFYRMSVK | GRAAGTFDS |
| not detected | 0 of 3 | 0 of 9 | GFTLNQYGIF | VLYSDGRRTFYGDSVK | GRAAGTFDS |
| 30 µM | 1 of 3 | 1 of 9 | GFTLNSYMIS | VIYSDGRRTFYGDSVK | GRAAETFDI |
| 21 nM | 3 of 3 | 2 of 9 | GFTLNSYGIS | VIYSDGRRRVYGDSVK | GLAAGTFDS |
| not detected | 0 of 3 | 2 of 9 | GFTLFSYSIS | VIYSDGRRTFMGDSVK | GRAAGTFDS |
| 740 µM | 1 of 3 | 1 of 9 | GFTLNSYGIS | VIYLDGRRTFYGDSVM | GRAAGEFDS |
| 100 µM | 1 of 3 | 4 of 9 | GFMLNSYGIS | VIYSDGRRTFYGDSDK | GRAAMTFDS |
| 6.6 µM | 3 of 3 | 3 of 9 | GFTLNSYGIS | VVYSDGRRTFYNDSVK | GRAAGTFDS |
| 16 nM | 3 of 3 | 2 of 9 | GFTLNSYGIS | VIYSDGSRTFYGDQVK | GRAAGTFGS |
| not detected | 0 of 3 | 1 of 9 | GFRLNSYGIS | VIYSGGRRTFYGDSVK | GRAAGTFDS |
| 4.1 µM | 3 of 3 | 1 of 9 | GFTLNSYGIS | VIYSDGRRTFYHDSVK | GRALGTFDA |
| not detected | 0 of 3 | 0 of 9 | GFTLNSYNIS | VIYSFGRRTFYGDSVL | GRAAGTFDS |
| 17 µM | 3 of 3 | 3 of 9 | GFALNQYEIS | VIYSDGRRTFYGDSVK | GRAAGTFDS |
| 20 µM | 1 of 3 | 1 of 9 | GFTLNSYGIS | VSYSDGRRTLYGDSHK | GRAAGTFDS |
| not detected | 0 of 3 | 1 of 9 | GFTLNSYGIS | GIYSDGRRTFYGDSVK | GRAAGTQYS |
| not detected | 0 of 3 | 0 of 9 | GFTLNIHGIS | VIYSDGRRTFYGDSVK | GRAAGTFDS |
| 180 µM | 2 of 3 | 2 of 9 | GFTLNSYGIS | VIYSLGRRWFYGDSVK | GRAAGTFDS |
| not detected | 0 of 3 | 3 of 9 | GETLNSYGIA | VIYSDGRRYFYGDSVK | GRAAGTFDS |
| not detected | 0 of 3 | 0 of 9 | GFTLNSYGIS | VILSDGRRTFYGDSVK | CIAAGTFDS |
| 3.8 µM | 1 of 3 | 2 of 9 | GFTLNSYGLN | VIYSDGRRTFYGDSVK | GRAAGTFDV |
| 4.7 µM | 1 of 3 | 1 of 9 | GFTLNSYPIS | VIYSDGRRTWYGDSVG | GRAAGTFDS |
| 90 nM | 1 of 3 | 0 of 9 | GDTLNSYGIS | VIYSDGRRTEYGVSVK | GRAAGTFDS |
| not detected | 0 of 3 | 0 of 9 | GFTLNSYGIS | CIYSDGRCTFYGDSVK | GRAAITFDS |
| not detected | 0 of 3 | 0 of 9 | GFTLNSYGIS | VIYSDSRRTFYGDSVK | GRAKRTFDS |
| not detected | 0 of 3 | 1 of 9 | GFTLNSYGIS | VIYSDGRRTFRGDSVK | GRAAGGFDE |
| not detected | 0 of 3 | 1 of 9 | GFTLNSYGIS | VIYSDGERTFMGDSVK | GRAAGTFWS |
| 760 nM | 3 of 3 | 1 of 9 | GFTLNSYGIS | VIYSDGRRTFYGDSGK | GRCAGTFDS |
| not detected | 0 of 3 | 1 of 9 | GFTLNSYGIF | VIYSDGRRTFYGDSVL | GRAAGTFAS |
| not detected | 0 of 3 | 2 of 9 | GFTLNSYGIS | VIYSDGRRPFYGDSWK | GRAAGTFDS |
| not detected | 0 of 3 | 1 of 9 | GFTDNSYGNS | VIYSDGRRTFYGDSVK | KRAAGTFDS |
| not detected | 0 of 3 | 0 of 9 | GFTLNSYGIS | VIYSYGRRTFYGDSMK | GRKAGTFDS |
| 12 µM | 1 of 3 | 3 of 9 | IFTLNSYGIS | VVYSDWRRTFYGDSVK | GRAAGTFDS |

The first 8 variants above that were never detected:

{"CDR-H1": "GFTLNSYGIS", "CDR-H2": "VIYSDLRRTFYGDHVK", "CDR-H3": "GCAAGTFDS", "apparent Kd": "not detected", "detected": "0 of 3", "control signals": "0 of 9"}
{"CDR-H1": "GFTLNSYGIS", "CDR-H2": "VIYSDNFRTFYGDSVK", "CDR-H3": "GRAAGWFDS", "apparent Kd": "not detected", "detected": "0 of 3", "control signals": "4 of 9"}
{"CDR-H1": "WFTLNSYGIS", "CDR-H2": "VIYSDVRRTFYGISVK", "CDR-H3": "GRAAGTFDS", "apparent Kd": "not detected", "detected": "0 of 3", "control signals": "0 of 9"}
{"CDR-H1": "GKTLNSYGIS", "CDR-H2": "VIYSDGRRTFNGDSVK", "CDR-H3": "GRAAPTFDS", "apparent Kd": "not detected", "detected": "0 of 3", "control signals": "0 of 9"}
{"CDR-H1": "GFTLNSYGIS", "CDR-H2": "VIYGDHRRTFYGDSVK", "CDR-H3": "GRAAGQFDS", "apparent Kd": "not detected", "detected": "0 of 3", "control signals": "0 of 9"}
{"CDR-H1": "GFTLNSYGIN", "CDR-H2": "VIYSNGRRTFYLDSVK", "CDR-H3": "GRAAGTFDS", "apparent Kd": "not detected", "detected": "0 of 3", "control signals": "1 of 9"}
{"CDR-H1": "GFTLNSYGIS", "CDR-H2": "VIYSDGRRPFYGDSVK", "CDR-H3": "CRRAGTFDS", "apparent Kd": "not detected", "detected": "0 of 3", "control signals": "0 of 9"}
{"CDR-H1": "GFTLFSYGIS", "CDR-H2": "VIYSDGRRKFYGDSVK", "CDR-H3": "GRAAGTFTS", "apparent Kd": "not detected", "detected": "0 of 3", "control signals": "0 of 9"}

From the AlphaSeq antibody data of Engelhart et al. 2022 (doi:10.1038/s41597-022-01779-4), copy in the FLAb collection.